## Measured affinities in a library of Ab-95 light chain variants

Binding partner: SARS-CoV-2 spike HR2 peptide, sequence PDVDLGDISGINAS.

Parent scFv Ab-95: VH joined to VL by the linker GGGGSGGGGSGGGGS. Changes lie in the light chain CDRs alone.
VH: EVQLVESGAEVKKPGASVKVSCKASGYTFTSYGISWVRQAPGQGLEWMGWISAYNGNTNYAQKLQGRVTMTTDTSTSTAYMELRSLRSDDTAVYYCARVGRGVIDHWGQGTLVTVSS
VL: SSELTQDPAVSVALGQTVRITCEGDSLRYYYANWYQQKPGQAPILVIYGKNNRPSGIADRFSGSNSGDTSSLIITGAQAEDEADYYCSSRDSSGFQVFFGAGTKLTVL

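The library (AAYL52) carries one to three amino acid substitutions per variant, with no insertions or deletions. Affinity was read by AlphaSeq, a pooled yeast mating assay with surface-displayed partners. The frequency of each diploid, read from paired DNA barcodes, reflects how well the two displayed proteins bind. The ratio of observed to expected reads was calibrated, replicate by replicate, on BCL2-family standards whose Kd was known from biolayer interferometry. There are three technical replicates.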

Sequences are complete VL domains. Numbers give log10(Kd / nM), so 0 is 1 nM and 3 is 1 µM. Smaller is tighter. "nd" marks a missing value. The strain was present, yet no cells mated with the target were sequenced in that replicate, which points to weak or no binding.

| VL | replicates, log10 nM | empty controls |
|---|---|---|
| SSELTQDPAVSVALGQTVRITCEGDWMRYYYANWYQQKPGQAPILVIYGKNNRPSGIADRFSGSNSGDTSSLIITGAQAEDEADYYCQSRDSSGFQVFFGAGTKLTVL | 3.29 / 3.65 / 4.03 | 2/9 (3.64) |
| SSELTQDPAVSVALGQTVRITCEGDSLRYYEANWYQQKPGQAPILVIYGKNNRPSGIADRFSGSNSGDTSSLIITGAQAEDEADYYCSSRDDSLFQVFFGAGTKLTVL | 3.11 / 2.40 / 1.88 | 2/9 (3.78) |
| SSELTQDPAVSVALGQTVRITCEGSDLRYYYANWYQQKPGQAPILVIYGKNNIPSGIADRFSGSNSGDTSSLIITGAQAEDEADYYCSSRDSSGFQVFFGAGTKLTVL | 2.82 / 3.27 / 2.59 | 2/9 (5.05) |
| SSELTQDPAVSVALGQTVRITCHGDSLRYYYANWYQQKPGQAPILVIYGKNNRPSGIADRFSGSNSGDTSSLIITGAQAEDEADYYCGSRYSSGFQVFFGAGTKLTVL | 3.79 / 5.87 / nd | 1/9 (3.54) |
| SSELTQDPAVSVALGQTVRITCEGDFLRYYYANWYQQKPGQAPILVIYGKNNRPPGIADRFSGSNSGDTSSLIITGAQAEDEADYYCSSIDSSGFQVFFGAGTKLTVL | 4.23 / 2.96 / 3.55 | 8/9 (3.93) |
| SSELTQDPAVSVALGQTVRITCEGDSLRYYYANWYQQKPGQAPILVIYGKNNRPTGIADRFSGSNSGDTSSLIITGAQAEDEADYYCSSSDSSGYQVFFGAGTKLTVL | 3.42 / 3.29 / 4.03 | 2/9 (4.31) |
| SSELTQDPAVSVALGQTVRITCEGDSRRYIQANWYQQKPGQAPILVIYGKNNRPSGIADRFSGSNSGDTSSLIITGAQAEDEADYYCSSRDSSGFQVFFGAGTKLTVL | 2.72 / 3.15 / 2.87 | 5/9 (3.70) |
| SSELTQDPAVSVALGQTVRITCEGDELRNYYTNWYQQKPGQAPILVIYGKNNRPSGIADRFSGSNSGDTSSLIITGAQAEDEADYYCSSRDSSGFQVFFGAGTKLTVL | 2.81 / 3.08 / 3.03 | 3/9 (4.73) |
| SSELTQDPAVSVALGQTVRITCEGDSLVYYYANWYQQKPGQAPILVIYQKNNRPSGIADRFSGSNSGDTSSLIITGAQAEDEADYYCSSRDSSGVQVFFGAGTKLTVL | 4.21 / nd / nd | 1/9 (3.34) |
| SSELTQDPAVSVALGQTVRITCEGDSLNYYYANWYQQKPGQAPILVIYHKNNRPSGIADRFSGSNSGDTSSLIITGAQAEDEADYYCSSRDSIGFQVFFGAGTKLTVL | nd / nd / 3.71 | 1/9 (3.67) |
| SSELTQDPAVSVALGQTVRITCEGDSLRYYYANWYQQKPGQAPILVIYGKNNCPSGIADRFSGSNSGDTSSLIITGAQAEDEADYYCLSRDISGFQVFFGAGTKLTVL | 4.31 / nd / 3.00 | 4/9 (4.32) |
| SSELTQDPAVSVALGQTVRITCEGDSLRYYTANWYQQKPGQAPILVIYGKNNRPTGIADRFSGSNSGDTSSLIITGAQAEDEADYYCSSRDSSGMQVFFGAGTKLTVL | 2.44 / 2.25 / 1.77 | 3/9 (4.41) |
| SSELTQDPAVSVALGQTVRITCEGDSLRWYYANWYQQKPGQAPILVIYGKNNRPSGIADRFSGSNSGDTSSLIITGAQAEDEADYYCSSRDSRGFQEFFGAGTKLTVL | 3.21 / 2.92 / 2.44 | 3/9 (3.56) |
| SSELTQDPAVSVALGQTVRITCEGDSLRYYYAPWYQQKPGQAPILVIYGKNNRPSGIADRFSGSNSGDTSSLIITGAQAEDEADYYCHSRDSAGFQVFFGAGTKLTVL | 4.49 / 5.81 / nd | 4/9 (4.78) |
| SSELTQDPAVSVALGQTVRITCEGDSLRYYYANWYQQKPGQAPILVIYIPNNRNSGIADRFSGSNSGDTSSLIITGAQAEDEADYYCSSRDSSGFQVFFGAGTKLTVL | 3.74 / nd / nd | 3/9 (4.08) |
| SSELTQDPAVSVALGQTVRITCEVDFLRYYYANWYQQKPGQAPILVIYGKNNRPSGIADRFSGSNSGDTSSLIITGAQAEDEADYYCGSRDSSGFQVFFGAGTKLTVL | nd / nd / nd | 3/9 (3.42) |
| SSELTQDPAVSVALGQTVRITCTGDSLRYYYANWYQQKPGQAPILVIYGKNNRPSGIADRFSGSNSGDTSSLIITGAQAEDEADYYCSSRDSSTFVVFFGAGTKLTVL | 2.48 / 2.33 / 2.71 | 7/9 (3.90) |
| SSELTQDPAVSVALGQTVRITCEGDSLRYPYANWYQQKPGQAPILVIYGKNHRPSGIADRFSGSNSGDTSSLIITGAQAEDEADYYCSSRDSSSFQVFFGAGTKLTVL | 3.98 / 4.57 / 3.85 | 5/9 (3.82) |
| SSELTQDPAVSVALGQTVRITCEGDSLRYYYANWYQQKPGQAPILVIYGKMNGPFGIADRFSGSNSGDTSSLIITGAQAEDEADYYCSSRDSSGFQVFFGAGTKLTVL | nd / 5.15 / 4.25 | 5/9 (3.96) |
| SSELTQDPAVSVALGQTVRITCNGDSLRYYYANWYQQKPGQAPILVIYGKNHRPSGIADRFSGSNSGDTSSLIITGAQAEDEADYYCSSYDSSGFQVFFGAGTKLTVL | 4.85 / 3.13 / nd | 2/9 (3.84) |
| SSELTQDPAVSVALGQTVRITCEWDSLRYYYADWYQQKPGQAPILVIYGKNNRPAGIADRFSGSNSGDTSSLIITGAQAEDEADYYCSSRDSSGFQVFFGAGTKLTVL | nd / nd / 3.74 | 2/9 (4.80) |
| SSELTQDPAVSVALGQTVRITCEGESLRYYQAQWYQQKPGQAPILVIYGKNNRPSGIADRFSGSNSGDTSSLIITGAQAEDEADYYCSSRDSSGFQVFFGAGTKLTVL | 1.94 / 1.79 / 1.39 | 2/9 (3.62) |
| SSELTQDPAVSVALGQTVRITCEGDSLRYYYANWYQQKPGQAPILVIYGKPNRISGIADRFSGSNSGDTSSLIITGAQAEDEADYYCSSRDSSGFQVFFGAGTKLTVL | 3.68 / 4.50 / 4.40 | 5/9 (3.81) |
| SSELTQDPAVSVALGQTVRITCEGLSLRYVYANWYQQKPGQAPILVIYGKNNRPSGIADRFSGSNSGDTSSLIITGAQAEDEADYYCSSRDSSGFQVFFGAGTKLTVL | 2.76 / 2.37 / 1.97 | 1/9 (3.92) |
| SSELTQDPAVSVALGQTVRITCENDSLRYTYANWYQQKPGQAPILVIYGKNNRPSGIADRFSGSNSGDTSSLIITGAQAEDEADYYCSSRDSSGLQVFFGAGTKLTVL | 3.07 / 2.55 / 2.80 | 2/9 (3.26) |

Background: pairings of library AAYL52 with three empty control strains gave a value in 28% of cases (median 3.91, 5th percentile 2.90). Values in that range, when seen in few replicates, are hard to tell from nonspecific mating. For each scFv, signals with the empty controls are counted beside the result, with their mean in brackets. For reference, the parent read 2.31 as the reference entry and 2.25 as a member of this library.

The measurements come from Engelhart et al. 2022 (doi:10.1038/s41597-022-01779-4) through the FLAb antibody collection.